The values below are quoted from earlier work in patent publication US20260285868A1, “IMIDAZOTRIAZINE DERIVATIVES AS IL-17 MODULATORS” (UCB BIOPHARMA SRL, priority 2023, published 2026).

Sequences of proteins named here, by UniProt entry; tags and fusion partners are left off. Residues count along the entry.
UniProt Q16552, 24-155 limits assumed: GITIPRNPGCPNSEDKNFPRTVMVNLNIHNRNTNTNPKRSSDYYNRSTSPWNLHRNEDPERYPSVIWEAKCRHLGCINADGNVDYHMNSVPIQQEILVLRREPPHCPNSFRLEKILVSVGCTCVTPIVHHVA

In the data set the target is IL-17A (Homo sapiens, UniProt Q16552). The note with it: comparative data; values as stated in WO 2023/275301; cited from earlier work.

A word on the pIC50: it is −log10 of the IC50, conventionally taken in molar units. On to `Cn1nccc1C(=O)N[C@H](c1cn2ncc([C@H]3C[C@](O)(C(F)F)CCN3C(=O)[C@@H]3CCC(F)(F)CO3)nc2n1)C1CCC(F)(F)CC1` (single isomer, unassigned), for which the pIC50 is reported as 6.2.
